Assay results reported in patent publication US7928140B2, “Benzothiazole PI3 kinase modulators for cancer treatment” (Amgen Inc., priority 2007, dated 2011).

By UniProt entry, the sequences of proteins in these tests, tags left out.
UniProt P42336, whole entry, species assumed: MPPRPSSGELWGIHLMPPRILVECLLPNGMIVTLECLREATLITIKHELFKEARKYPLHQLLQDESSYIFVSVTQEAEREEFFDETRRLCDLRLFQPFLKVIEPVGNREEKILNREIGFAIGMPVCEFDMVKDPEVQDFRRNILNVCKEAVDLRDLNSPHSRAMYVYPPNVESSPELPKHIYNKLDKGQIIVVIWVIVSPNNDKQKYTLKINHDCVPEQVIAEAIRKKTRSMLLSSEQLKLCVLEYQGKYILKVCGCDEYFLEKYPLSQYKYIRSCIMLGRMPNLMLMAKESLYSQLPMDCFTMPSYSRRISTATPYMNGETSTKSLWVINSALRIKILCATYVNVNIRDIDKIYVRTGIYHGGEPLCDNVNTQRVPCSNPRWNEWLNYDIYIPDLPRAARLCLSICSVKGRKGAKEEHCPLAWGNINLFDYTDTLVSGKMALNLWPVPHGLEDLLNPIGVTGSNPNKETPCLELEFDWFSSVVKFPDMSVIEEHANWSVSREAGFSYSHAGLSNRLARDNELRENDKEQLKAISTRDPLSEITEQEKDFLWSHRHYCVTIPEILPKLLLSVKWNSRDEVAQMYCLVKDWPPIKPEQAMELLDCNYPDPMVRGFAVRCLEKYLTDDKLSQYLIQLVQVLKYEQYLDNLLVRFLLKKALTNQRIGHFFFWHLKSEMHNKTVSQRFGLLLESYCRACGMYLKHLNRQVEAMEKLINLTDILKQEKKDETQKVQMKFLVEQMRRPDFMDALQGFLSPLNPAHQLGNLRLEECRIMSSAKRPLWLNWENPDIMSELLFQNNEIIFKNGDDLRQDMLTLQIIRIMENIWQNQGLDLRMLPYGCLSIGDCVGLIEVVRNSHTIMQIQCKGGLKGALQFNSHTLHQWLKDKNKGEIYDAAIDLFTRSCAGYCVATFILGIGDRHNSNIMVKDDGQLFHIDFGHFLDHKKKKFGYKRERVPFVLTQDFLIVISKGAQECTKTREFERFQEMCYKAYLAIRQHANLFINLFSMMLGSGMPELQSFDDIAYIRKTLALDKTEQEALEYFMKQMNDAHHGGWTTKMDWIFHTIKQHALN

Biological target: T1, PI3K α (Homo sapiens, UniProt P42336)
T1 construct: Full length p110 subunits of PI3K α, β and δ, N-terminally labeled with polyHis tag; polyHis (N); made in house; host or cells: Sf9 insect cells (baculovirus)
Test: In vitro PI3 kinase enzyme assay (alpha), ATP loss, bioluminescence;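 note: purified p110α/p85 heterodimer acting on PtdIns(4,5)P2 at room temperature, remaining ATP read by luminescence, inhibition scaled between compound-free wells with and without enzyme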
Type: biochemical
Conditions: read-out: PI3Kα ATP loss IC50
Procedure: The compound in DMSO (1 μL) was added per test well, and the inhibition relative to reactions containing no compound, with and without enzyme was determined.

Compound: CC(=O)Nc1nc2ccc(-c3ccnc(Sc4cccc(F)c4)n3)cc2s1 [Example 109, N-(6-(2-((3-fluorophenyl)sulfanyl)-4-pyrimidinyl)-1,3-benzothiazol-2-yl)acetamide]
- IC50: 199 nM
